{"sequences": {"note": "Protein sequences, listed by entry. Tags and fused reporters are not part of them.", "UniProt P28223, whole entry": "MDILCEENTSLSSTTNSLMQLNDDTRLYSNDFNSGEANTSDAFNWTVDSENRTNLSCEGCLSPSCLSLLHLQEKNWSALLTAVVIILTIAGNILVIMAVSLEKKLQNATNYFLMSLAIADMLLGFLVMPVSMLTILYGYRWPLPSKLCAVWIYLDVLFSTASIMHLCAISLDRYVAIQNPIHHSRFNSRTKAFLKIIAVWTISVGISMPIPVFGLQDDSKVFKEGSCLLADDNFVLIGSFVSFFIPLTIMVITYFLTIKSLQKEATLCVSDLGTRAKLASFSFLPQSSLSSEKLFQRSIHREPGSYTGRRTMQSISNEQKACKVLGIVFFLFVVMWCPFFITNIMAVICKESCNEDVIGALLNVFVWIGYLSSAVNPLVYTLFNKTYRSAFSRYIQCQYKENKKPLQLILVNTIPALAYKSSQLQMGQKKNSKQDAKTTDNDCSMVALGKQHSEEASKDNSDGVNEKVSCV"}, "source": "ChEMBL document CHEMBL1156026", "about": "“Design and synthesis of pyridazinone-based 5-HT(2C) agonists” (Bioorg Med Chem Lett, 2009)", "target": "5-hydroxytryptamine receptor 2A (Homo sapiens, UniProt P28223)", "test": "Agonist activity at human recombinant 5HT2A receptor expressed in Swiss mouse 3T3 cells assessed as induction of calcium mobilization by FLIPR assay", "format": "functional, cell-based", "note": "pEC50: −log10 of the molar value.", "data": [{"molecule": "Clc1cccc(N2CCNCC2)c1", "note": "[CHLOROPHENYLPIPERAZINE]", "values": [{"measurement": "pEC50", "result": 6.78}]}]}
